This is an account of results in PubChem BioAssay AID602144 (Vanderbilt Specialized Chemistry Center, 2011).

Amino acid sequences for entries named in this document (tags omitted).
UniProt Q13393, whole entry, looked up: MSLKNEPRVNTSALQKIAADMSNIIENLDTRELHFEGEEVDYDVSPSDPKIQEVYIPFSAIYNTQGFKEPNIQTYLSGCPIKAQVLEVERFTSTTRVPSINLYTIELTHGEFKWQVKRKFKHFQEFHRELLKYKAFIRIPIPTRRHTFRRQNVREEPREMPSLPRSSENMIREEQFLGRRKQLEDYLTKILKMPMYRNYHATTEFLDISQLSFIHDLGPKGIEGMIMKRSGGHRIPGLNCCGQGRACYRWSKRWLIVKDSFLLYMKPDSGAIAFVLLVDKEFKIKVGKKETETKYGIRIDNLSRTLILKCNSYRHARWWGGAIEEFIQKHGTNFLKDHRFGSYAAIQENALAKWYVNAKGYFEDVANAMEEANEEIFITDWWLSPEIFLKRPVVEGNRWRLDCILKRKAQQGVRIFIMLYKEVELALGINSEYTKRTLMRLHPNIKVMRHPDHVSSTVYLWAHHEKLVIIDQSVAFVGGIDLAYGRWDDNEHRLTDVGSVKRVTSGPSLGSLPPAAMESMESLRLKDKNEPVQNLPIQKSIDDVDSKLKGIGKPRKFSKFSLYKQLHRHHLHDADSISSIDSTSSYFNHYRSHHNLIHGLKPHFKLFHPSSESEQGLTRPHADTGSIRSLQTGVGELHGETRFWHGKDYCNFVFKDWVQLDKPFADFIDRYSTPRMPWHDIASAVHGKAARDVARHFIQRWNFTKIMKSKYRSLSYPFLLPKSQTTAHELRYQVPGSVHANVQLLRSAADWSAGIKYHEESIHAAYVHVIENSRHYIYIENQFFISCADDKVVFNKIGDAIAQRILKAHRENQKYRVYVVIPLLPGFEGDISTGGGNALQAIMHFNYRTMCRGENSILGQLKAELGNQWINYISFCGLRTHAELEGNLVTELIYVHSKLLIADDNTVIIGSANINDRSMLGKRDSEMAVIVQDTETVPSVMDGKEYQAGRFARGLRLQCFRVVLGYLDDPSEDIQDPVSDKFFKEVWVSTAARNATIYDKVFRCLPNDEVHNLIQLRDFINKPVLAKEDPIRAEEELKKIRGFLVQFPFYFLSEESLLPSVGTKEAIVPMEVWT

What is called remaining activity is the signal under treatment as a percentage of the control signal.

This assay concerns the target Phospholipase D1 (Homo sapiens) (UniProt Q13393). The experiment in a line: cellular phospholipase D1 activity inhibition – Calu-1 cells, single concentration (AID 602144).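 Also: tested at 200 nM.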 Conditions: cellular PLD1 activity, active compounds read low.

Only a part is listed here, and it is no random draw. Activity calls are given as the source filed them. Rule as the data show it: active = remaining activity below about 50%; inactive = the rest.

With `O=C(CN1CCC(n2c(=O)[nH]c3ccccc32)CC1)c1ccccc1`, the remaining activity was inactive: 119%.
